Values of other authors, collected in patent EP0325010B1, “Non-digestible fat substitutes of low-caloric value” (ARCO Chemical Technology, L.P., priority 1988, dated 1989).

Conditions: rat, in vivo

digested: almost completely non-digested
Substance: Distearin adipate
